Literature values, collected in patent publication US20040051079A1, “Compression molded product of quick-dissolving chlorinated isocyanuric acid” (published 2004).

Conditions: background art; reference amount of water not given

Substance	solubility in water
sodium dichloroisocyanurate	about 25 g
potassium dichloroisocyanurate	about 25 g
